Test results reported in PMC3961306, “Comparison of the Cancer Gene Targeting and Biochemical Selectivities of All Targeted Kinase Inhibitors Approved for Clinical Use” (PLoS ONE, 2014).

Protein sequences, listed by entry. Tags and fused reporters are not part of them. Residues count along the entry.
UniProt Q8IU85, whole entry, stated change not applied: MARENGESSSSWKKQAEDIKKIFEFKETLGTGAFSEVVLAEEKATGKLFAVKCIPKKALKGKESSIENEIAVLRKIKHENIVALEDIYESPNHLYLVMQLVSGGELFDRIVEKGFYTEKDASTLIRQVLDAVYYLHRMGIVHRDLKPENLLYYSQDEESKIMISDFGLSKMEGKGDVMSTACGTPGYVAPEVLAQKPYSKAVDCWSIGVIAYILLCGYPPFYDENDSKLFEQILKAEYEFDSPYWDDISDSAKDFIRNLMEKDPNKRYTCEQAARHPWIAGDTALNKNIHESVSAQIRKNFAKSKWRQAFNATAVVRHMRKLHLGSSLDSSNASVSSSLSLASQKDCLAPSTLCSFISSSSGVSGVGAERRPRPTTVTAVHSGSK
UniProt P42681, whole entry, stated change not applied: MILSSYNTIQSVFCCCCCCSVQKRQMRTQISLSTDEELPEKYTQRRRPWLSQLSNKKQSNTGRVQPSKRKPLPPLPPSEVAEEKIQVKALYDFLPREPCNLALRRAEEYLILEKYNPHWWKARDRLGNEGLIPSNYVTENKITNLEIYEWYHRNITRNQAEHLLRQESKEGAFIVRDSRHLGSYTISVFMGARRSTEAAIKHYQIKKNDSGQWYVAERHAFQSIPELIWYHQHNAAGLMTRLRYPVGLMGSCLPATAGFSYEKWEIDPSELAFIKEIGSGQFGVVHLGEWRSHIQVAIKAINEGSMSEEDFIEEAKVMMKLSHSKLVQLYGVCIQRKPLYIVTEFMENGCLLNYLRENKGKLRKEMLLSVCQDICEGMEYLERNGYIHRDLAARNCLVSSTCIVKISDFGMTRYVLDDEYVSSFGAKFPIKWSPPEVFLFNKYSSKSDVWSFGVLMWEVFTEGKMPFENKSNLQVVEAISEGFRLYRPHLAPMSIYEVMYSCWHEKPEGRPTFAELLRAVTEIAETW
UniProt P21709, 26-976, stated change not applied: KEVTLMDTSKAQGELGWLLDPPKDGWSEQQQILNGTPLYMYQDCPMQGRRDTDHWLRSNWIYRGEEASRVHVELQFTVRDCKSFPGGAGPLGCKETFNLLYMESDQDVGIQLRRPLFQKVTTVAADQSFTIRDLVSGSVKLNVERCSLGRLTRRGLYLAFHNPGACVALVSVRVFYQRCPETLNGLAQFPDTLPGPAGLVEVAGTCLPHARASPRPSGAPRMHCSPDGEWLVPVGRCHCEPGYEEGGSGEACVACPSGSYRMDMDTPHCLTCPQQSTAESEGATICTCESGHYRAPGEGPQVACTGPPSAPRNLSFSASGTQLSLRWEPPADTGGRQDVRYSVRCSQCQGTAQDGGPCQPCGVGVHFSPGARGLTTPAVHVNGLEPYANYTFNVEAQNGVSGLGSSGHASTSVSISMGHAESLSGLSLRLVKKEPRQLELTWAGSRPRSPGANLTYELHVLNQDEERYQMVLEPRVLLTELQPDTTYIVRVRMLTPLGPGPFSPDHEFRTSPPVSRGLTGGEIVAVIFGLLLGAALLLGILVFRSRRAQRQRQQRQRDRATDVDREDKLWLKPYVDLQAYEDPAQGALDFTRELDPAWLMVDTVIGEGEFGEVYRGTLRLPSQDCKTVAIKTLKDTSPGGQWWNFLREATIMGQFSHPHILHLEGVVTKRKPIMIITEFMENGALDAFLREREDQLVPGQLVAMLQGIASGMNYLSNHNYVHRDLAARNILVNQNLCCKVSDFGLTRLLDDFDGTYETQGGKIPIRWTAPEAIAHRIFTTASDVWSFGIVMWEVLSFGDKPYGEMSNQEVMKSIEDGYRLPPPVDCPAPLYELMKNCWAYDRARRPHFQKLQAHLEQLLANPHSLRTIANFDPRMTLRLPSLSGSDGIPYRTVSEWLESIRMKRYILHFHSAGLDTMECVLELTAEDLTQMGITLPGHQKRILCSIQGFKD
UniProt Q13470, whole entry, stated change not applied: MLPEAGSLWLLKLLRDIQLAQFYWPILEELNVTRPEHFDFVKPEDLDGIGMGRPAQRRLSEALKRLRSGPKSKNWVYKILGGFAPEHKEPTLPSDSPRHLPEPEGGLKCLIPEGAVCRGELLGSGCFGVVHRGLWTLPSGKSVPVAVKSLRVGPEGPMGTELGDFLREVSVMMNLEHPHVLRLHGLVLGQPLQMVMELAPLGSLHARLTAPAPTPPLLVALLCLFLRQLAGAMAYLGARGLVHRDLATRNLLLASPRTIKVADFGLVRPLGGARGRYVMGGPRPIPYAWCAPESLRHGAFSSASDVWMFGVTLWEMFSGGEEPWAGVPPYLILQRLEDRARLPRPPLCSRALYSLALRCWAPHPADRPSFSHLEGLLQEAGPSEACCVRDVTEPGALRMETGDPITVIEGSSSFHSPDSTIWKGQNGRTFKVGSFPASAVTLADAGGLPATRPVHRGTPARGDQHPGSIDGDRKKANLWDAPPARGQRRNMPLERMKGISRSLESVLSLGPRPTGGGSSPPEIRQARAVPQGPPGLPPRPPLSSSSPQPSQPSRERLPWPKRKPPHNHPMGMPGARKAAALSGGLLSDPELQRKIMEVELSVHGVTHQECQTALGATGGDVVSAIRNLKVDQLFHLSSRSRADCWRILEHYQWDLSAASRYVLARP
UniProt Q9H422, whole entry, stated change not applied: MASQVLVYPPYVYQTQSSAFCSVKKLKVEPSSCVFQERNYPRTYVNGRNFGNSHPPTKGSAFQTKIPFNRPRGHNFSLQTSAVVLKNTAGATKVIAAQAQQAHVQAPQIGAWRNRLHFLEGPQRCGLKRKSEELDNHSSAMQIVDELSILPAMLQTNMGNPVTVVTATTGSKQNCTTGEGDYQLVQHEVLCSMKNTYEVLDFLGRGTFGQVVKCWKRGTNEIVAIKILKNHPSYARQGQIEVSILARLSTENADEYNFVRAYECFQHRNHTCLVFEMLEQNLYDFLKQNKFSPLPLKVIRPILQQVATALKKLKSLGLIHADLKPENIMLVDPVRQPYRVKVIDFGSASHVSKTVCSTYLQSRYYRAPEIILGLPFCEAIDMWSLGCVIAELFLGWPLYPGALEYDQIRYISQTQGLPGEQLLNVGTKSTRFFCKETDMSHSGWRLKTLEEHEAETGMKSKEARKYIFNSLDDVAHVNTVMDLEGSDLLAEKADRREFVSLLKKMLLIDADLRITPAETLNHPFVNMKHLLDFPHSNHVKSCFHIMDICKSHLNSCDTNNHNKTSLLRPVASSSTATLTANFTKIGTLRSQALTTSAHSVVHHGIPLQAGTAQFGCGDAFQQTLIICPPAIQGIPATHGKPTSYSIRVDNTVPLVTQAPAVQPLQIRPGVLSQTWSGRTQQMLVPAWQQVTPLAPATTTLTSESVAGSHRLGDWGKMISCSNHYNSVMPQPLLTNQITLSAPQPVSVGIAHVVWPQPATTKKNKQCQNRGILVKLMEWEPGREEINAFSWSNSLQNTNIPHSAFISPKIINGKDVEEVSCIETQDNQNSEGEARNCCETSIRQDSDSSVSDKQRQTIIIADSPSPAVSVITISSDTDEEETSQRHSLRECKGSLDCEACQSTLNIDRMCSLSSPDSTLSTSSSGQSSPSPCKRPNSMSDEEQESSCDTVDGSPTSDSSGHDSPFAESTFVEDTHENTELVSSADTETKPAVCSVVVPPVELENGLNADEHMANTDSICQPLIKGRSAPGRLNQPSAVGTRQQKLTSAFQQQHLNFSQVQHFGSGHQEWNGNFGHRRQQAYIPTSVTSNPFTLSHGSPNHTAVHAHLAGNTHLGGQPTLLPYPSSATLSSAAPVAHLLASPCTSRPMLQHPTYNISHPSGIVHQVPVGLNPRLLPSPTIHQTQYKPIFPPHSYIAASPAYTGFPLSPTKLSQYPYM
UniProt O14920, whole entry, stated change not applied: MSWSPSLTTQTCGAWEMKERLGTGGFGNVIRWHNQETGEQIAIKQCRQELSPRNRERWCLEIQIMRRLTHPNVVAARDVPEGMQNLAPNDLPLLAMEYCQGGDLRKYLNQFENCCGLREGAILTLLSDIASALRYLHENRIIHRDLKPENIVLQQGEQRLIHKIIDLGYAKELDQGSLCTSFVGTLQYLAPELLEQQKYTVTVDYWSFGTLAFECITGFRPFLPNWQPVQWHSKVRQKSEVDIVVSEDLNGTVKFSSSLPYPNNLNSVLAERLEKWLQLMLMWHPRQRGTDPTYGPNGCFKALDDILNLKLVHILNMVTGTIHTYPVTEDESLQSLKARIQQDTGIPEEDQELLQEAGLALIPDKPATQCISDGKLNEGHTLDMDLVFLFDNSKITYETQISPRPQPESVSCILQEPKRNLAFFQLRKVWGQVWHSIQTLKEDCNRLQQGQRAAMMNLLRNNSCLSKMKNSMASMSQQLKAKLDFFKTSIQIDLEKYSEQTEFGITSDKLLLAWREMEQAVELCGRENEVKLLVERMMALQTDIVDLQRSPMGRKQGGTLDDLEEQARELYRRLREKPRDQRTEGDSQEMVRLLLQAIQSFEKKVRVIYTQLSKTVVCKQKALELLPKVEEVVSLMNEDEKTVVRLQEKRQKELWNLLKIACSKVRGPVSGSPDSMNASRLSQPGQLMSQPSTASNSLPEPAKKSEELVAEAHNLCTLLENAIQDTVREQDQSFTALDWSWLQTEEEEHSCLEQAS
UniProt O43781, whole entry, stated change not applied: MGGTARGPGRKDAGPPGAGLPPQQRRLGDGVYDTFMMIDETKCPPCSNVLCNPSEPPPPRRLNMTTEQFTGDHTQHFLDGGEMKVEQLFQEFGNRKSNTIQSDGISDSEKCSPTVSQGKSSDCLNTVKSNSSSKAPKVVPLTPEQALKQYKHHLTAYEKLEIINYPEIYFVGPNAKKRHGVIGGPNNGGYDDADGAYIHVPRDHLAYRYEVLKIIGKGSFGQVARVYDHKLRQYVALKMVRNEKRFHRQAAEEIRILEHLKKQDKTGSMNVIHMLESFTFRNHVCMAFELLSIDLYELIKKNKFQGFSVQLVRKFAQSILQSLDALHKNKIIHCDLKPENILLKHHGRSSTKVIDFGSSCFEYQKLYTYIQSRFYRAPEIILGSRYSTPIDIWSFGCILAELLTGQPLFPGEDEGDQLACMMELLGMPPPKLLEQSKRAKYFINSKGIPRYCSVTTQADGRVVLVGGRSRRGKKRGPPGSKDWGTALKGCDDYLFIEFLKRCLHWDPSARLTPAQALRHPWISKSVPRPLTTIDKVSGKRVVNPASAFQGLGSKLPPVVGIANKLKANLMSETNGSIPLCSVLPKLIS
UniProt P00519, whole entry, stated change not applied: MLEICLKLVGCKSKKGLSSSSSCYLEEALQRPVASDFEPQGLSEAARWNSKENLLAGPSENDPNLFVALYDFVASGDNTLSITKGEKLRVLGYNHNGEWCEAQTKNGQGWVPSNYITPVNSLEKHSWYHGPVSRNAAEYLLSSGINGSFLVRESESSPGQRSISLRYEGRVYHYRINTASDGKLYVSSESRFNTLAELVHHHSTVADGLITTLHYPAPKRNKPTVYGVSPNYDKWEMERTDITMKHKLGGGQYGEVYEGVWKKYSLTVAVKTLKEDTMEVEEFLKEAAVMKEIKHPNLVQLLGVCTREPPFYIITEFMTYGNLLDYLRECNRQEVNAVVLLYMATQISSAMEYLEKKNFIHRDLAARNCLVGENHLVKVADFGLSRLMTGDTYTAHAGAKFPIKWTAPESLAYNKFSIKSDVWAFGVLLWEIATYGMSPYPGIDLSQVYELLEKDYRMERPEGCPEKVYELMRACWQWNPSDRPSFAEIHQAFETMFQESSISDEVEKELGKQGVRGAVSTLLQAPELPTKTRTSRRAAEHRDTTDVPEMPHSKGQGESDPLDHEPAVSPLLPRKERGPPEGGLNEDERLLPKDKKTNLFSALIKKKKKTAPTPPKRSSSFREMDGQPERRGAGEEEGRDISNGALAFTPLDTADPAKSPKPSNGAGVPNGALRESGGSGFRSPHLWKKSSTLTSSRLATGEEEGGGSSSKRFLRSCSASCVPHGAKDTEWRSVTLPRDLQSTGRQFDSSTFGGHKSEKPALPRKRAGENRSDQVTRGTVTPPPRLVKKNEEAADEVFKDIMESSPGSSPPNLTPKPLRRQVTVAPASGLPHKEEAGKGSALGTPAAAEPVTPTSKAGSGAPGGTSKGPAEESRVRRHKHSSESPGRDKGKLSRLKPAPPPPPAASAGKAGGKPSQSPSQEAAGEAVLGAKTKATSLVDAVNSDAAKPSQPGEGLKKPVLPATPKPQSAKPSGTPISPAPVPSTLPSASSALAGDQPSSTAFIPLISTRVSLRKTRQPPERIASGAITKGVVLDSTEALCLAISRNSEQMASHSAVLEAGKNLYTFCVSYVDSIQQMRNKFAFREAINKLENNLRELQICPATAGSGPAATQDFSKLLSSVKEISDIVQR

What was measured:
Experiment in all cases: Kinase profiling in a biochemical assay panel (mobility shift assays and ELISA), %-inhibition at 1 μM; selectivity entropy
Conditions in all cases: 1 µM
[1] = biological target: panel of more than 300 wild-type and mutant kinases (313 kinase panel) (Homo sapiens, UniProt Q8IU85)
[2] = biological target: panel of more than 300 wild-type and mutant kinases (313 kinase panel) (Homo sapiens, UniProt Q14289)
[3] = biological target: panel of more than 300 wild-type and mutant kinases (313 kinase panel) (Homo sapiens, UniProt P08922)
[4] = biological target: panel of more than 300 wild-type and mutant kinases (313 kinase panel) (Homo sapiens, UniProt P14616)
[5] = biological target: panel of more than 300 wild-type and mutant kinases (313 kinase panel) (Homo sapiens, UniProt P04629)
[6] = biological target: panel of more than 300 wild-type and mutant kinases (313 kinase panel) (Homo sapiens, UniProt P09769)
[7] = biological target: panel of more than 300 wild-type and mutant kinases (313 kinase panel) (Homo sapiens, UniProt P42681)
[8] = biological target: panel of more than 300 wild-type and mutant kinases (313 kinase panel) (Homo sapiens, UniProt P21709)
[9] = biological target: panel of more than 300 wild-type and mutant kinases (313 kinase panel) (Homo sapiens, UniProt Q13470)
[10] = biological target: panel of more than 300 wild-type and mutant kinases (313 kinase panel) (Homo sapiens, UniProt Q15303)
[11] = biological target: panel of more than 300 wild-type and mutant kinases (313 kinase panel) (Homo sapiens, UniProt P51957)
[12] = biological target: panel of more than 300 wild-type and mutant kinases (313 kinase panel) (Homo sapiens, UniProt Q99759)
[13] = biological target: panel of more than 300 wild-type and mutant kinases (313 kinase panel) (Homo sapiens, UniProt P42685)
[14] = biological target: panel of more than 300 wild-type and mutant kinases (313 kinase panel) (Homo sapiens, UniProt Q9H422)
[15] = biological target: panel of more than 300 wild-type and mutant kinases (313 kinase panel) (Homo sapiens, UniProt O15530)
[16] = biological target: panel of more than 300 wild-type and mutant kinases (313 kinase panel) (Homo sapiens, UniProt Q9Y2U5)
[17] = biological target: panel of more than 300 wild-type and mutant kinases (313 kinase panel) (Homo sapiens, UniProt P15056, V600E)
[18] = biological target: panel of more than 300 wild-type and mutant kinases (313 kinase panel) (Homo sapiens, UniProt O94804)
[19] = biological target: panel of more than 300 wild-type and mutant kinases (313 kinase panel) (Homo sapiens, UniProt O14920)
[20] = biological target: panel of more than 300 wild-type and mutant kinases (313 kinase panel) (Homo sapiens, UniProt O43781)
[21] = biological target: panel of more than 300 wild-type and mutant kinases (313 kinase panel) (Homo sapiens, UniProt P00519)
[22] = biological target: panel of more than 300 wild-type and mutant kinases (313 kinase panel) (Homo sapiens, UniProt P51812)
[23] = biological target: panel of more than 300 wild-type and mutant kinases (313 kinase panel) (Homo sapiens, UniProt Q13882)

For COc1cc2ncnc(Nc3ccc(F)c(Cl)c3)c2cc1OCCCN1CCOCC1 [gefitinib], the “%-inhibition, CaMK1δ” value [1] was -1.74% and the “%-inhibition of PYK2” value [2] was 1.35%.
In the case of C[C@@H]1CCN(C(=O)CC#N)C[C@@H]1N(C)c1ncnc2[nH]ccc12 [tofacitinib], the “%-inhibition of ROS” value [3] is reported as 4%, the “%-inhibition of IRR” value [4] is reported as -4% and the “%-inhibition of TRKA” value [5] is reported as 13%. The “%-inhibition of FGR” value [6] was -0.222%, the “%-inhibition of TXK” value [7] was -1.78% and the “%-inhibition of EPHA1” value [8] was -11%. The “%-inhibition of TNK1” value [9] was 88%, the “%-inhibition of HER4” value [10] was 7% and the “%-inhibition of NEK4” value [11] was -5.68%. The “%-inhibition of MAP3K3” value [12] was -15%, the “%-inhibition of FRK” value [13] was 0.0972% and the “%-inhibition of HIPK3” value [14] was -7.6%. For the same compound, the “%-inhibition of PDK1” value [15] was -5.71%, the “%-inhibition of MAP3K2” value [16] was 6% and the “%-inhibition, BRAF(V600E)” value [17] was 1.08%. For the same compound, the “%-inhibition of LOK” value [18] was 2.46%, the “%-inhibition of IKKβ” value [19] was -4% and the “%-inhibition of DYRK3” value [20] was -8%. The “%-inhibition, ABL” value [21] was -1.44%, the “%-inhibition of RSK2” value [22] was 2.57% and the “%-inhibition, BRK” value [23] was -6%.
